Experimental data: ChEMBL document CHEMBL1145376, “C-8 Modifications of 3-alkyl-1,8-dibenzylxanthines as inhibitors of human cytosolic phosphoenolpyruvate carboxykinase” (Bioorg Med Chem Lett, 2007)

By UniProt entry, the sequences of proteins in these tests, tags left out.
UniProt P35558, whole entry: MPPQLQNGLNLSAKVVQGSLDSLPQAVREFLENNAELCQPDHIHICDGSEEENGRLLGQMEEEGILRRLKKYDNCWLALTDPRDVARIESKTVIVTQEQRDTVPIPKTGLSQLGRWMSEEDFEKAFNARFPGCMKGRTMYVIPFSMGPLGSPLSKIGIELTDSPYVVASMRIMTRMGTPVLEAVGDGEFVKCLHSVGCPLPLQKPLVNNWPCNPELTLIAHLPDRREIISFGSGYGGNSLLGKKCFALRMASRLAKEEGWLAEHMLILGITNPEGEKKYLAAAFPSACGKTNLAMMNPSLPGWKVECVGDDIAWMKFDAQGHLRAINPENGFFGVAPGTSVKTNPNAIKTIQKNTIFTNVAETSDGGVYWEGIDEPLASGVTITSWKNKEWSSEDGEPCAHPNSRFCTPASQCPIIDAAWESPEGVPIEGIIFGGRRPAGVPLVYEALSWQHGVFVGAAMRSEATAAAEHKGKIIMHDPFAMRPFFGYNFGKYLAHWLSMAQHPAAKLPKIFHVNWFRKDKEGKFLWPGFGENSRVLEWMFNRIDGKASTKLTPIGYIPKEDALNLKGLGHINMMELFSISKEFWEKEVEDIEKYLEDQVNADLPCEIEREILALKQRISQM

Target: Phosphoenolpyruvate carboxykinase, cytosolic [GTP] (Homo sapiens, UniProt P35558)
Experiment: Inhibition of human cPEPCK

IC50: 630 nM
SMILES: CCCCn1c(=O)n(Cc2ccccc2F)c(=O)c2[nH]c(Cc3ccc(NS(=O)(=O)c4cn(C)cn4)cc3)nc21
